Assay: In vitro skin flux study of free form oxybutynin gels, modified Franz diffusion cell
Format: in vitro ADME
Details: Table 15, mean ± SD, n = 3 skin donors
Experimental: In vitro skin flux studies of Examples 9 through 11 were conducted using full-thickness skin samples (approximately 500 μm) obtained from skin banks. The full-thickness skin samples were stored at −5° C. until experiments were conducted. The gender, age, sex and anatomical site information for each donor was recorded when available.
The method used to apply a thin film of gel to the surface of the skin was adapted from Chia-Ming Chiang et al., Bioavailability assessment of topical delivery systems: in vitro delivery of minoxidil from prototypical semi-solid formulations, IJP, 49:109-114, 1989, which is incorporated herein by reference. The stratum corneum side of a piece of skin was attached to one side of an adhesive-coated metal shim having a circular hole of 0.64 cm^2 cut in the center. The shim-membrane assembly was placed on top of a flat glass surface, and approximately 15 μL of a formulation was dispensed into the central cavity. With a microscope slide, the gel was spread across the surface of the skin, loading a dose of approximately 7 μL over the 0.64 cm^2 diffusional surface area. The applied dose was approximately 11 μL of gel per cm^2 diffusional surface area, which is typical for topical applications.
The gel-loaded shim-membrane assembly was clamped between the donor and receiver compartments of a modified Franz diffusion cell with the dermal side facing the receiver solution. The receiver compartment was filled with 0.02% (w/v) NaN3 to maintain sink conditions on the receiver side throughout the duration of the experiment. The donor compartment was unoccluded and open to the atmosphere. Cells were placed in a water bath heated with circulating water and calibrated to maintain the skin surface temperature at (32±1)° C.
At predetermined time points, the entire contents of the receiver compartment was collected for quantifying the amount of drug, and the receiver compartment refilled with fresh receptor medium, taking care to eliminate any air bubbles at the skin/solution interface. Each of the samples were analyzed using high performance liquid chromatography (HPLC). The cumulative amount of drug permeated per unit area at any time t (Qt, μg/cm^2) was determined over a 24-hr period as follows:
[formula] where, Cn is the concentration (μg/mL) of the drug in the receiver sample at the corresponding sample time, V is the volume of fluid in the receiver chamber, and A is the diffusional area of the cell (0.64 cm^2).
For the studies of Examples 8 through 10, typically four replicates were obtained per skin per system. A comparison of the means of the values obtained for a given system from each skin indicated differences in permeation due to differences in skin.

[1] = optically pure isomer as oxybutynin chloride gel Et/W/Gl/G/D1/N 73.2/17.9/1.0/2.0/4.4/1.5
[2] = optically pure isomer as oxybutynin free base gel Et/W/Gl/G/D2/H 73.2/18.3/1.0/2.0/4.0/1.5

| Substance | Qt (t = 24 hours) [1] | Qt (t = 24 hours) [2] |
| --- | --- | --- |
| (R)-oxybutynin | 6.98 ± 4.26 μg/cm^2/t | 7.08 ± 5.43 μg/cm^2/t |
| (S)-oxybutynin | 6.24 ± 3.77 μg/cm^2/t | 6.87 ± 5.35 μg/cm^2/t |
